# Laboratory results taken from patent publication US7317007B2, “Benzothiazole derivatives with activity as adenosine receptor ligands” (Hoffmann-La Roche Inc., priority 2000, dated 2008).
# Target: T1, human adenosine A2A receptor (Homo sapiens, UniProt P29274)
# T1 construct: expressed in transfected cells; host or cells: CHO cells, Semliki Forest virus expression system; washed membrane pellet used
# Test: [3H]-SCH-58261 binding assay at the human adenosine A2A receptor
# Conditions: hA2A binding; [3H]-SCH-58261 1 nM; membranes of CHO cells recombinantly expressing the receptor; Ki by Cheng-Prussoff equation
# Method: Human Adenosine A2A Receptor
# The human adenosine A2A receptor was recombinantly expressed in chinese hamster ovary (CHO) cells using the semliki forest virus expression system. Cells were harvested, washed twice by centrifugation, homogenised and again washed by centrifugation. The final washed membrane pellet was suspended in a Tris (50 mM) buffer containing 120 mM NaCl, 5 mM KCl, 2 mM CaCl2 and 10 mM MgCl2 (pH 7.4) (buffer A). The [^3H]-SCH-58261 (Dionisotti et al., 1997, Br J Pharmacol 121, 353; 1 nM) binding assay was carried out in 96-well plates in the presence of 2.5 μg of membrane protein, 0.5 mg of Ysi-poly-1-lysine SPA beads and 0.1 U adenosine deaminase in a final volume of 200 μl of buffer A. Non-specific binding was defined using xanthine amine congener (XAC; 2 μM). Compounds were tested at 10 concentrations from 10 μM-0.3 nM. All assays were conducted in duplicate and repeated at least two times. Assay plates were incubated for 1 hour at room temperature before centrifugation and then bound ligand determined using a Packard Topcount scintillation counter. IC50 values were calculated using a non-linear curve fitting program and Ki values calculated using the Cheng-Prussoff equation.
substance,measurement,value
1-Oxo-1l 4-thiomorpholine-4-carboxylic acid (4-methoxy-7-phenyl-benzothiazol-2-yl)-amide [Example 159],pKi value,8.9
